US20230157998A1, “Methods of Inhibiting SARS-CoV-2 Replication and Treating Corona Virus Disease 2019” (Pfizer Inc., priority 2020, published 2023)

Experiment: Assay of CD/co-solvent/water formulations of different compositions over 5 days (F8)
Conditions: pH 5.0, 80 mg/mL SBE-β-CD, 5 mM citrate, target 4 mg/mL PF-00835231
[1] = Ethanol 0.75, PEG400 […] v/v, Polysorbate 80 […]

Compound: COc1cccc2[nH]c(C(=O)N[C@@H](CC(C)C)C(=O)N[C@@H](C[C@@H]3CCNC3=O)C(=O)CO)cc12 [PF-00835231]
- Assay (Day 1) (DMSO 0.75, PEG400 […] v/v): 4.0
- Assay (Day 5) (DMSO 0.75, PEG400 […] v/v): 3.9
- Assay (Day 1) (DMSO 3.0% v/v): 4.1
- Assay (Day 5) (DMSO 3.0% v/v): 4.3
- Assay (Day 1) (Ethanol 0.75, DMSO […] v/v): 3.9
- Assay (Day 5) (Ethanol 0.75, DMSO […] v/v): 3.9
- Assay (Day 1) (Ethanol 0.75, PEG300 […] v/v): 3.8
- Assay (Day 5) (Ethanol 0.75, PEG300 […] v/v): 3.7
- Assay (Day 1) [1]: 3.6
- Assay (Day 5) [1]: 3.5
- Assay (Day 1) (Ethanol 0.75, PEG400 […] v/v): 3.6
- Assay (Day 5) (Ethanol 0.75, PEG400 […] v/v): 3.6
- Assay (Day 1) (Ethanol 0.75, PG […] v/v): 3.8
- Assay (Day 5) (Ethanol 0.75, PG […] v/v): 3.8
- Assay (Day 1) (PG 3.0% v/v): 3.8
- Assay (Day 5) (PG 3.0% v/v): 3.8
